Experimental data from ChEMBL document CHEMBL4828766, “Functional Mixture-Based Positional Scan Identifies a Library of Antagonist Tetrapeptide Sequences (LAtTeS) with Nanomolar Potency for the Melanocortin-4 Receptor and Equipotent with the Endogenous AGRP(86-132) Antagonist” (J Med Chem, 2021).

By UniProt entry, the sequences of proteins in these tests, tags left out. Where a name states a change or a piece, a line headed by the entry shows the natural chain unless it says otherwise.
UniProt P33033: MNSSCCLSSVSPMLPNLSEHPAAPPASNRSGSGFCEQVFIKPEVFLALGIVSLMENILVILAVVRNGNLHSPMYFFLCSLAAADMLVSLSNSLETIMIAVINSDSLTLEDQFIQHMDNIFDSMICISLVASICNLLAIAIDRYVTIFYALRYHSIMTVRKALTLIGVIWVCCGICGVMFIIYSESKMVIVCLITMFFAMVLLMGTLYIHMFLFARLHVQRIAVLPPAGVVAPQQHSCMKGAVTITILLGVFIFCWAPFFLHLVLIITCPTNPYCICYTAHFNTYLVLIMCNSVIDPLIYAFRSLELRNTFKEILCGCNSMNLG
UniProt P56450, whole entry: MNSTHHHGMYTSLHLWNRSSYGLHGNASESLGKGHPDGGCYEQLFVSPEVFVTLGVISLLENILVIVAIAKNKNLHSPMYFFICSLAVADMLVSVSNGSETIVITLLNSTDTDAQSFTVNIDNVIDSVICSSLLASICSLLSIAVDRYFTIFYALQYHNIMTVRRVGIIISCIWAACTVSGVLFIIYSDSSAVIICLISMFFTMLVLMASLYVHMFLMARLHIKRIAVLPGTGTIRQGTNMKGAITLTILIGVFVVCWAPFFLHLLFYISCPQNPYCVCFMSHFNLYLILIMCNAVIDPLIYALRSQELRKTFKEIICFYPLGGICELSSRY

How the values were obtained:
Melanocortin receptor 3 = Melanocortin receptor 3 (Mus musculus, UniProt P33033); assay: Agonist activity at mouse MC3R expressed in HEK293 cells assessed as induction of cAMP level incubated for 2 hr by alphaScreen assay; format: functional, cell-based
Melanocortin receptor 4 = Melanocortin receptor 4 (Mus musculus, UniProt P56450); assay: Agonist activity at mouse MC4R expressed in HEK293 cells assessed as induction of cAMP level incubated for 2 hr by alphaScreen assay; format: functional, cell-based

EC50 (Melanocortin receptor 4) [µM] | Compound | EC50 (Melanocortin receptor 3) [µM]
 | CC(=O)N[C@H](Cc1ccc(I)cc1)C(=O)N[C@@H](CCCNC(=N)N)C(=O)N[C@@H](Cc1ccc2ccccc2c1)C(=O)N[C@@H](CCCNC(=N)N)C(N)=O | > 100
> 100 | CC(=O)N[C@H](Cc1ccc(I)cc1)C(=O)N[C@@H](CCCNC(=N)N)C(=O)N[C@H](Cc1ccc2ccccc2c1)C(=O)N[C@H](CCCCN)C(N)=O | > 100
> 100 | CC(=O)N[C@H](Cc1ccc(I)cc1)C(=O)N[C@@H](CCCNC(=N)N)C(=O)N[C@@H](Cc1ccc2ccccc2c1)C(=O)N[C@H](CCCCN)C(N)=O | > 100

Compound | EC50 (Melanocortin receptor 4) [µM] | EC50 (Melanocortin receptor 3) [µM]
CC(=O)N[C@H](Cc1ccc(I)cc1)C(=O)N[C@@H](CCCNC(=N)N)C(=O)N[C@H](Cc1ccc2ccccc2c1)C(=O)N[C@@H](CCCNC(=N)N)C(N)=O | > 100 | > 100
